Measured values reported in ChEMBL document CHEMBL4825735, “Estimation of the lipophilicity of purine-2,6-dione-based TRPA1 antagonists and PDE4/7 inhibitors with analgesic activity” (Bioorg Med Chem Lett, 2021).

Assay: Lipophilicity, logP of compound by shake flask method
Format: physicochemical
Conditions: octanol/water

logP: 2.9
SMILES: O=c1n(CCCN2CCN(c3cccc(Cl)c3)CC2)nc2ccccn12 [TRAZODONE]
